## Apparent affinities of Ab-14 variants for a coronavirus HR2 peptide

Reference: Engelhart et al. 2022, doi:10.1038/s41597-022-01779-4. File: FLAb, binding data.

Target: peptide PDVDLGDISGINAS, taken from heptad repeat 2 (HR2) of SARS-CoV-2 spike.

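Phage display of a naive human antibody library on the peptide gave the parent. Library AAYL49 holds single substitutions and randomly drawn double and triple substitutions in the CDRs. In AlphaSeq, yeast of one mating type display the scFv and yeast of the other type display the target. Binding brings cells together so that they mate, and sequencing counts the barcode pairs among the diploids. Each replicate has its own calibration line, from reference interactions of the BCL2 family. There are three technical replicates.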

Ab-14 is the parent antibody, in scFv form: VH, then the linker GGGGSGGGGSGGGGS, then VL. The light chain is unchanged in all variants.
VH: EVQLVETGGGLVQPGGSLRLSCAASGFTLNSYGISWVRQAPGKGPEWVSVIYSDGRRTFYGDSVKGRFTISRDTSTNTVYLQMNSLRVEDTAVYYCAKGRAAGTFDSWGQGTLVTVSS
VL: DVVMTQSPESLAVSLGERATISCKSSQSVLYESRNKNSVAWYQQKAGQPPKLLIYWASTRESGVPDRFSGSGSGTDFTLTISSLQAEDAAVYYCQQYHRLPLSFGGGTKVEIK

Sequences are complete VH domains. This list gathers variants with a substitution at S107 (VH, numbered from residue 1). The Kd shown is the geometric mean over detected replicates; a lower Kd is a better binder. An entry "nd" has no value in the source: the pair was not observed among the diploids in any replicate. This suggests poor binding but is not conclusive. In this assay the parent's reference entry averaged 4.4 nM; its copy inside this library read 13 µM (one replicate of three).

Variant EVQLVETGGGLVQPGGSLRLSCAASGFTLNSYGISWVRQAPGKGPEWVSVIYSDGRRTFYGDSVKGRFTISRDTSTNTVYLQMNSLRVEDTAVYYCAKGRAATTFDKWGQGTLVTVSS showed 31 nM (3 of 3 replicates). Variant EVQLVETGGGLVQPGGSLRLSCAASGFTLQSYGISWVRQAPGKGPEWVSVIYSDGRRTFYGDPVKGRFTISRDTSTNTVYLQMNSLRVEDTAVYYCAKGRAAGTFDHWGQGTLVTVSS gave 20 nM (3 of 3 replicates). With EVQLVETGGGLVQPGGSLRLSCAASGFTLNSYGISWVRQAPGKGPEWVSVIYSDGRETFYGDSVKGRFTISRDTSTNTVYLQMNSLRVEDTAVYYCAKGRAAGCFDFWGQGTLVTVSS the result was nd (0 of 3 replicates). Variant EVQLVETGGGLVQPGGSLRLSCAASGFTLNSYGISWVRQAPGKGPEWVSVITSDGRRTFYGDSVKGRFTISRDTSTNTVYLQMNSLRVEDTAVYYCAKTRAAGTFDQWGQGTLVTVSS showed 9.8 µM (1 of 3 replicates). Variant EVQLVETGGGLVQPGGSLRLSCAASGFTLMSYGISWVRQAPGKGPEWVSVIYSDGRRTFYLDSVKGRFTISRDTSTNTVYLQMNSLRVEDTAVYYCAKGRAAGTFDHWGQGTLVTVSS gave 400 nM (3 of 3 replicates).

Variant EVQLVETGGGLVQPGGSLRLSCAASGFTLNSYGISWVRQAPGKGPEWVSVIYSDGRRTFYGDHVKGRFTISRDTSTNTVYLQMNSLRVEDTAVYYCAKGRAAGTFDEWGQGTLVTVSS showed 100 nM (3 of 3 replicates). Variant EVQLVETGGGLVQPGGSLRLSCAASGFTLNSYGISWVRQAPGKGPEWVSVIYSDGRYTFYCDSVKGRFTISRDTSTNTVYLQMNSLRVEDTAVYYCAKGRAAGTFDPWGQGTLVTVSS showed 8.5 µM (3 of 3 replicates). Variant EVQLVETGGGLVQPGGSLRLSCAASGFTLNSYHISWVRQAPGKGPEWVSVIYSDGRDTFYGDSVKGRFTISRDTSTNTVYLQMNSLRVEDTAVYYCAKGRAAGTFDAWGQGTLVTVSS gave 23 µM (1 of 3 replicates). Variant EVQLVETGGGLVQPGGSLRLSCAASGFTLNSYGCSWVRQAPGKGPEWVSVIYSDGRRTEYGDSVKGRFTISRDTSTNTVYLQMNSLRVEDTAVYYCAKGRAAGTFDNWGQGTLVTVSS gave 240 µM (2 of 3 replicates). For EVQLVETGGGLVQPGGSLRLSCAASGFTLNSYGISWVRQAPGKGPEWVSVIYSDGRREFYGDSVKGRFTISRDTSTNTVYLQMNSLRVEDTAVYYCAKGRAVGTFDDWGQGTLVTVSS, the assay gave nd (0 of 3 replicates).

For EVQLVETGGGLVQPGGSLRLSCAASGFTLNSYGISWVRQAPGKGPEWVSVIYSDGRRCFNGDSVKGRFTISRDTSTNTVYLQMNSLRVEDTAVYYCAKGRAAGTFDVWGQGTLVTVSS, the assay gave 22 µM (2 of 3 replicates). For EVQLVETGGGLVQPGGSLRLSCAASGFTLNSYGISWVRQAPGKGPEWVSVIYSDGRRTFYGDSVKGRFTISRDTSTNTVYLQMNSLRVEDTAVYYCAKGRAAGTFLQWGQGTLVTVSS, the assay gave 4.2 nM (3 of 3 replicates). For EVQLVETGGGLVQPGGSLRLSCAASGFTLNSYGISWVRQAPGKGPEWVSVIQSDGRRTFYGDTVKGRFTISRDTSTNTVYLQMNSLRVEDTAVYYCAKGRAAGTFDPWGQGTLVTVSS, the assay gave 4.9 µM (1 of 3 replicates). Variant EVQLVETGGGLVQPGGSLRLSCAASGFTLNSYGISWVRQAPGKGPEWVSVIISDGRRTFYGDSVMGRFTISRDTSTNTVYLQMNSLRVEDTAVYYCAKGRAAGTFDDWGQGTLVTVSS showed nd (0 of 3 replicates). For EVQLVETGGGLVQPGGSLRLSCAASGFTLNSYGISWVRQAPGKGPEWVSVIYSDGRRTFYGDSMKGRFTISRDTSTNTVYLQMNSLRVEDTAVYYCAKGRAAGTFDGWGQGTLVTVSS, the assay gave 36 µM (2 of 3 replicates).

Variant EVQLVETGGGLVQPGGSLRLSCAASGFDLNSPGISWVRQAPGKGPEWVSVIYSDGRRTFYGDSVKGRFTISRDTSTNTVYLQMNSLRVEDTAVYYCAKGRAAGTFDDWGQGTLVTVSS showed nd (0 of 3 replicates). Variant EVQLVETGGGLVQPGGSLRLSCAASGFTLNSYGISWVRQAPGKGPEWVSVIYSDGRTGFYGDSVKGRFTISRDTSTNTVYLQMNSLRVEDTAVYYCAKGRAAGTFDQWGQGTLVTVSS showed nd (0 of 3 replicates). Variant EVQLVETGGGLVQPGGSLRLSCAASGFTLNSYGISWVRQAPGKGPEWVSVIYSVGRRTFYGDSVKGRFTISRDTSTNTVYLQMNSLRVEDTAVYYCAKGRAAQTFDLWGQGTLVTVSS showed nd (0 of 3 replicates). Variant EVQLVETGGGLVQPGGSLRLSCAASGFTLNSYGISWVRQAPGKGPEWVSVIYSDGRRTFYGDSVGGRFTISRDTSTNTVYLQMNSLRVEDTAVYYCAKGRAAGCFDFWGQGTLVTVSS showed nd (0 of 3 replicates). With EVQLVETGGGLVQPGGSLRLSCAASGFTFNSYGISWVRQAPGKGPEWVSVIYSDGRRTFSGDSVKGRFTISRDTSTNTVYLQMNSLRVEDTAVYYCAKGRAAGTFDRWGQGTLVTVSS the result was nd (0 of 3 replicates).

Variant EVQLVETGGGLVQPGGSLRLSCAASGFTLNQYGISWVRQAPGKGPEWVSVIYSDGRRTFYGDSVKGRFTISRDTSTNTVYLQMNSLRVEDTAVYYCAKGRAAGTFDIWGQGTLVTVSS gave nd (0 of 3 replicates). Variant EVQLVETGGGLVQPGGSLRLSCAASGFTLNSYGCSWVRQAPGKGPEWVSVIYSDGRGTFYGDSVKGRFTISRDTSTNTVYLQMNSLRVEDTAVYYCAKGRAAGTFDYWGQGTLVTVSS showed 850 nM (1 of 3 replicates). Variant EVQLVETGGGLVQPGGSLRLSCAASGFTLNSYGISWVRQAPGKGPEWVSVIYSDGRRTFYGRSVKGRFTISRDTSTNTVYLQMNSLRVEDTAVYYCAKGNAAGTFDQWGQGTLVTVSS showed 69 nM (3 of 3 replicates). For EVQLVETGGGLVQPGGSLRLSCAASGFTLKSYGISWVRQAPGKGPEWVSVIYSDGRRTFYWDSVKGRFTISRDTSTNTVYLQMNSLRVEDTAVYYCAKGRAAGTFDYWGQGTLVTVSS, the assay gave nd (0 of 3 replicates).

Repeated from above, the 2 best binders with a signal in all replicates:

VH,Kd (apparent),replicates with signal
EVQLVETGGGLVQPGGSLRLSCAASGFTLNSYGISWVRQAPGKGPEWVSVIYSDGRRTFYGDSVKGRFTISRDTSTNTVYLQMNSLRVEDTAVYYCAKGRAAGTFLQWGQGTLVTVSS,4.2 nM,3/3
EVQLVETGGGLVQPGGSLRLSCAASGFTLQSYGISWVRQAPGKGPEWVSVIYSDGRRTFYGDPVKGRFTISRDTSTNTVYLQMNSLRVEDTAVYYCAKGRAAGTFDHWGQGTLVTVSS,20 nM,3/3

Empty control strains, which show no peptide, gave a signal in 15% of pairings with library AAYL49; the median was 11 µM and 95% of these signals were weaker than 680 nM. No background was subtracted.